Test results: patent publication US20240000948A1, “METHODS FOR TREATING EYE DISEASES USING LIPID BINDING PROTEIN-BASED COMPLEXES” (ABIONYX PHARMA SA, priority 2020, published 2024)

Assay: CER-001 as carrier for ophthalmic drugs: appearance of samples after thermal cycling
Type: physicochemical
Conditions: dexamethasone palmitate 1 mg/ml in PBS; five cycles 37° C. to 55° C.; FIG. 1C
Description: (§1) A solution of CER-001 was mixed with azithromycin to provide a final azithromycin concentration of 10 mg/ml and subjected to five heating and cooling cycles from 37° C. to 55° C. to promote complexation of azithromycin to CER-001. For controls, a sample of CER-001 without added azithromycin and a sample of azithromycin at a concentration of 10 mg/ml in phosphate buffered saline (PBS) were similarly subjected to five heating and cooling cycles from 37° C. to 55° C.
as §1, with “spironolactone” for “azithromycin”, “1.5” for “10”
A solution of CER-001 was mixed with cyclosporine to provide a final cyclosporine concentration of 1 mg/ml and subjected to five heating and cooling cycles from 37° C. to 55° C. to promote complexation of cyclosporine to CER-001. […]

**Q.** For dexamethasone palmitate, which “appearance of sample following the heating and cooling cycles” value is on record?
**A.** contained a lipid film on the glass above the meniscus and was very cloudy
